The record followed here is PubChem BioAssay (NCI).

Some test systems named below: NCI-H23 lung; NCI-H226 lung; NCI-H322M lung; HOP-62 NSCLC; NCI-H460 lung; HOP-92 NSCLC; NCI-H522 lung; A549/ATCC NSCLC; 786-0 renal; COLO 205 colon.
What all share (assay): NCI-60 one-dose screen, 48 h (100 = growth as untreated, 0 = no growth, -100 = all killed)
Conditions in all cases: 10 µM unless noted

The entries are a selection whose mix differs from that of the whole data set.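 48-hour exposure, single concentration, 96-well plates; percent growth endpoint where 0 means no net growth. Active: below 10.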 Active and inactive are the calls of the source.

Consider `CCCCOP(N)(=O)OCCCC`, for which the growth with NCI-H23 lung is inactive: 106%; in the assay on NCI-H226 lung it was inactive: 101%; with NCI-H322M lung, inactive: 98.8%; in the assay with HOP-62 NSCLC, inactive: 108%; with NCI-H460 lung, inactive: 108%; with HOP-92 NSCLC it was inactive: 99.2%. Further, the growth was inactive: 89.7% in the assay with NCI-H522 lung, inactive: 104% in the assay on A549/ATCC NSCLC, inactive: 106% in the assay with 786-0 renal and inactive: 107% with COLO 205 colon.
As for `Nc1ccc([As](=O)(O)c2ccc([N+](=O)[O-])cc2)cc1`, the growth in the assay on NCI-H23 lung was inactive: 101%; in the assay on NCI-H226 lung, inactive: 94.9%; in the assay with NCI-H322M lung, inactive: 108%; with HOP-62 NSCLC, inactive: 94.2%; in the assay on NCI-H460 lung, inactive: 113%; in the assay with HOP-92 NSCLC, inactive: 83.8%. Moreover, the growth with NCI-H522 lung was inactive: 140%; in the assay on A549/ATCC NSCLC, inactive: 106%; in the assay with 786-0 renal, inactive: 101%; with COLO 205 colon it was inactive: 103%.
Regarding `CCCCOP(OCCCC)OCCCC`, the growth is inactive: 103% in the assay with NCI-H23 lung; inactive: 102% with NCI-H226 lung; inactive: 118% with NCI-H322M lung; inactive: 104% in the assay on HOP-62 NSCLC; inactive: 111% in the assay on NCI-H460 lung; inactive: 130% with HOP-92 NSCLC. Besides, the growth is inactive: 88.1% in the assay on NCI-H522 lung, inactive: 115% in the assay on A549/ATCC NSCLC, inactive: 101% in the assay on 786-0 renal and inactive: 120% in the assay with COLO 205 colon.
`CCOC(=O)N1CCN(CCCl)CC1`: the growth in the assay with NCI-H23 lung was inactive: 103%; with NCI-H226 lung, inactive: 103%; in the assay with NCI-H322M lung, inactive: 103%; in the assay on HOP-62 NSCLC, inactive: 97.1%; in the assay on NCI-H460 lung, inactive: 110%; with HOP-92 NSCLC it was inactive: 86.4%. Also, the growth in the assay with NCI-H522 lung was inactive: 96.6%; in the assay with A549/ATCC NSCLC it was inactive: 107%; in the assay with 786-0 renal, inactive: 99.7%; with COLO 205 colon, inactive: 102%.
In the case of `N/C(=N\N=C\c1ccc([N+](=O)[O-])o1)N[N+](=O)[O-]`, the growth was inactive: 97.8% in the assay on NCI-H23 lung; inactive: 97.6% in the assay on NCI-H226 lung; inactive: 104% in the assay on NCI-H322M lung; inactive: 98.8% in the assay with HOP-62 NSCLC; inactive: 99.9% in the assay on NCI-H460 lung; inactive: 128% in the assay with HOP-92 NSCLC. In addition, the growth in the assay with NCI-H522 lung was inactive: 85.4%; in the assay on A549/ATCC NSCLC it was inactive: 91.4%; in the assay with 786-0 renal it was inactive: 107%; in the assay with COLO 205 colon, inactive: 90.6%.
As for `O=C(O)c1ccccc1[As](=O)(O)O`, the growth in the assay with NCI-H23 lung is inactive: 111%; in the assay with NCI-H226 lung, inactive: 101%; in the assay on NCI-H322M lung it was inactive: 95.8%; with HOP-62 NSCLC it was inactive: 101%; with NCI-H460 lung, inactive: 163%; in the assay on HOP-92 NSCLC it was inactive: 96.6%. For the same compound, the growth in the assay with NCI-H522 lung is inactive: 91.2%; in the assay with A549/ATCC NSCLC, inactive: 93.8%; in the assay on 786-0 renal it was inactive: 105%; in the assay on COLO 205 colon it was inactive: 120%.
Take `C[As](=O)(O)c1cccc(C(=O)O)c1`: the growth was inactive: 98.8% in the assay with NCI-H23 lung; inactive: 98.9% in the assay with NCI-H226 lung; inactive: 105% in the assay with NCI-H322M lung; inactive: 95% in the assay with HOP-62 NSCLC; inactive: 107% in the assay with NCI-H460 lung; inactive: 81.6% in the assay with HOP-92 NSCLC. For the same compound, the growth in the assay with NCI-H522 lung was inactive: 93%; with A549/ATCC NSCLC, inactive: 99.4%; with 786-0 renal, inactive: 96.4%; in the assay on COLO 205 colon, inactive: 110%.
Consider `CCCCOP(=O)(OCCCC)N1CCCC1C(=O)O` (stereo not given), for which the growth was inactive: 99.5% in the assay with NCI-H23 lung; inactive: 95.3% in the assay on NCI-H226 lung; inactive: 110% in the assay with NCI-H322M lung; inactive: 80.5% in the assay with HOP-62 NSCLC; inactive: 100% with NCI-H460 lung; inactive: 88.9% with HOP-92 NSCLC. The growth in the assay on NCI-H522 lung is inactive: 85.9%; in the assay on A549/ATCC NSCLC it was inactive: 85.3%; in the assay with 786-0 renal, inactive: 99.5%; in the assay on COLO 205 colon, inactive: 96.5%.
As to `CN(CCCl)/N=N/c1nc2nc[nH]c(=O)c2[nH]1`, the growth in the assay on NCI-H23 lung was inactive: 100%; in the assay on NCI-H226 lung, inactive: 118%; with NCI-H322M lung, inactive: 92.1%; in the assay with HOP-62 NSCLC it was inactive: 79.4%; with NCI-H460 lung, inactive: 113%; with HOP-92 NSCLC it was inactive: 105%. In addition, the growth is inactive: 87.2% in the assay on NCI-H522 lung, inactive: 91.9% in the assay on A549/ATCC NSCLC, inactive: 91.7% with 786-0 renal and inactive: 114% with COLO 205 colon.
As to `ClCCNCC1COc2ccccc2O1` (stereo not given), the growth with NCI-H23 lung is inactive: 99.5%; with NCI-H226 lung, inactive: 107%; in the assay on NCI-H322M lung, inactive: 107%; in the assay on HOP-62 NSCLC, inactive: 102%; with NCI-H460 lung, inactive: 105%; in the assay on HOP-92 NSCLC, inactive: 103%. Also, the growth in the assay with NCI-H522 lung was inactive: 93.5%; in the assay with A549/ATCC NSCLC it was inactive: 85.5%; with 786-0 renal, inactive: 101%; in the assay on COLO 205 colon, inactive: 107%.
With `CC(C)N(CCCl)/N=N/c1nc2nc[nH]c(=O)c2[nH]1`, the growth is inactive: 98.6% with NCI-H23 lung; inactive: 113% in the assay on NCI-H226 lung; inactive: 91.9% with NCI-H322M lung; inactive: 97.3% with HOP-62 NSCLC; inactive: 111% with NCI-H460 lung; inactive: 110% in the assay on HOP-92 NSCLC. Moreover, the growth in the assay on NCI-H522 lung is inactive: 85.4%; with A549/ATCC NSCLC it was inactive: 89.3%; in the assay with 786-0 renal, inactive: 98.7%; in the assay with COLO 205 colon, inactive: 124%.
In the case of `Cn1c(=O)c2[nH]c(N(CCCl)CCCl)nc2n(C)c1=O`, the growth was inactive: 104% with NCI-H23 lung; inactive: 97.1% in the assay with NCI-H226 lung; inactive: 94% with NCI-H322M lung; inactive: 102% with HOP-62 NSCLC; inactive: 102% in the assay on NCI-H460 lung; inactive: 99.3% in the assay on HOP-92 NSCLC. Moreover, the growth was inactive: 84.9% in the assay on NCI-H522 lung, inactive: 95% in the assay with A549/ATCC NSCLC, inactive: 96.8% with 786-0 renal and inactive: 106% in the assay on COLO 205 colon.
With `CCN(CC)[P+](c1ccc(OC)cc1OC)(N(CC)CC)N(CC)CC`, the growth with NCI-H23 lung was inactive: 30.1%; with NCI-H226 lung, inactive: 45.7%; in the assay on NCI-H322M lung, inactive: 102%; in the assay with HOP-62 NSCLC it was inactive: 33.8%; with NCI-H460 lung, inactive: 21.6%; in the assay with HOP-92 NSCLC, inactive: 42%. Further, the growth in the assay on NCI-H522 lung is active: 2.3%; in the assay with A549/ATCC NSCLC it was inactive: 31.3%; with 786-0 renal, inactive: 68.6%; in the assay on COLO 205 colon it was active: -5.78%.
`O=C1CSC(C(Cl)(Cl)Cl)N1c1ccc(Cl)cc1` (stereo not given): the growth with NCI-H23 lung was inactive: 98.8%; with NCI-H226 lung it was inactive: 98.8%; in the assay on NCI-H322M lung, inactive: 87.6%; with HOP-62 NSCLC, inactive: 102%; with NCI-H460 lung, inactive: 101%; in the assay on HOP-92 NSCLC, inactive: 77.1%. Further, the growth was inactive: 84.8% with NCI-H522 lung, inactive: 96.2% with A549/ATCC NSCLC, inactive: 107% with 786-0 renal and inactive: 109% in the assay on COLO 205 colon.
